Source: patent US10428060B2, “PI-kinase inhibitors with anti-infective activity” (The Board of Trustees of the Leland Stanford Junior …, priority 2011, dated 2019)

Key:
[1] = test system: HCV genotype 2a; test: microbe, parasite or virus in culture; assay type: cell-based; settings: Hepatitis C virus, Huh7.5, read-out: HCV2a EC50
Experimental: Anti-HCV assay: Anti-HCV assays are performed as described by Cho et al. “Identification of a class of HCV inhibitors directed against the nonstructural protein NS4B.” Sci. Transl. Med. 2011; 2(15):15ra6.

[2] = test system: HRV; test: Rhinovirus antiviral assay; assay type: cell-based; settings: Human rhinovirus sp., read-out: HRV EC50

| SMILES | EC50 [1] [µM] | EC50 [2] [µM] |
| --- | --- | --- |
| COc1ccc(-c2sc(NC(=O)CC3CCOCC3)nc2C)cc1S(=O)(=O)Nc1ccccc1C [Compound S-228, N-[5-[4-methoxy-3-(o-tolylsulfamoyl)phenyl]-4-methyl-thiazol-2-yl]-2-tetrahydropyran-4-yl-acetamide] | 0.1 to 1 | < 0.001 |
| COc1ccc(-c2sc(NCC3CCCCC3)nc2C)cc1S(=O)(=O)Nc1ccccc1F [Compound S-29, 5-[2-(cyclohexylmethylamino)-4-methyl-thiazol-5-yl]-N-(2-fluorophenyl)-2-methoxy-benzenesulfonamide] | – | < 0.001 |
| COc1ccc(-c2sc(NC(=O)[C@@H](C)C3CCCCC3)nc2C)cc1S(=O)(=O)Nc1ccc(O)cc1 [Compound S-138, (2S)-2-cyclohexyl-N-[5-[3-[(4-hydroxyphenyl)sulfamoyl]-4-methoxy-phenyl]-4-methyl-thiazol-2-yl]propanamide] | 0.1 to 1 | < 0.001 |
